Experimental data reported in ChEMBL document CHEMBL1134650.
Values joined by “and” are separate entries in the source; they are usually repeats but may differ in a detail not shown here. Equal entries are not always repeated.

Chains of the proteins cited; added tags and fusions are not shown.
UniProt P33535, whole entry: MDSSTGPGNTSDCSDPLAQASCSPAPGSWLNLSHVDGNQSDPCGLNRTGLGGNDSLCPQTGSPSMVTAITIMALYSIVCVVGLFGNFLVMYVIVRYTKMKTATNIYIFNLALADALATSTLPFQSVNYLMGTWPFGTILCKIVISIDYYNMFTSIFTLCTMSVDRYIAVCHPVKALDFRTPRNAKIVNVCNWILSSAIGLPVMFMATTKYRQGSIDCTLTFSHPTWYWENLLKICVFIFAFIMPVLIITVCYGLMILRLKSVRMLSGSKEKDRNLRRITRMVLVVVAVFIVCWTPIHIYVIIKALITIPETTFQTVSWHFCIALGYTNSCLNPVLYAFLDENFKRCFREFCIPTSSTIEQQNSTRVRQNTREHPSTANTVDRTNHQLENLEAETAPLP
UniProt P33533, whole entry: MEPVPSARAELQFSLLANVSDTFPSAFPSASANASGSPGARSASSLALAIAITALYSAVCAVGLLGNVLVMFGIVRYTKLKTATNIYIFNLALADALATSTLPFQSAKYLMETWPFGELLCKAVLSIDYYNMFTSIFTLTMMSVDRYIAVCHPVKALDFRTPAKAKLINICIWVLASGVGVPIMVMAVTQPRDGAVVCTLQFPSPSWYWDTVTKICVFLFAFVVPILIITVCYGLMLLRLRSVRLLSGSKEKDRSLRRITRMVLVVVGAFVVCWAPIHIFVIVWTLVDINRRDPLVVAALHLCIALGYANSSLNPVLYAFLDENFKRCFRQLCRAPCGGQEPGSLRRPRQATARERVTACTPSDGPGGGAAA
UniProt P34975, whole entry: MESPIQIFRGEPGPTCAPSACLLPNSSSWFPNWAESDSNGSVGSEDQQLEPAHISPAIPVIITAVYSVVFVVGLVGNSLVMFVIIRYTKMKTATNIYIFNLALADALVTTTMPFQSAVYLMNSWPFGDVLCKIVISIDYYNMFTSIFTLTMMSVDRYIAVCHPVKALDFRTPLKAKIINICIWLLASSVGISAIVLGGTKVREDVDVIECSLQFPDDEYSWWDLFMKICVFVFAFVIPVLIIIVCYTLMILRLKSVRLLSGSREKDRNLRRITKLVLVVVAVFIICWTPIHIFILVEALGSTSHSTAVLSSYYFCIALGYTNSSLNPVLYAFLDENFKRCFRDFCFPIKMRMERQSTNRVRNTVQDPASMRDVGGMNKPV

Tests used:
Mu-type opioid receptor = Mu-type opioid receptor (Rattus norvegicus, UniProt P33535); assay: Affinity of [3H]DAMGO to the mu opioid receptor from rat brain
[1] = target: Delta-type opioid receptor (Rattus norvegicus, UniProt P33533); assay: Affinity of [H]DADLE to the delta opioid receptor from rat brain
[2] = target: Kappa-type opioid receptor (Rattus norvegicus, UniProt P34975); assay: Affinity of [3H]U-69593 to opioid receptor kappa 1 from rat brain

Structure (SMILES) | Ki (Mu-type opioid receptor) | Ki [1] | Ki [2]
CCN(CC)C(=O)c1ccc(N(c2cccc(OC)c2)[C@@H]2CCN(CC=C(C)C)C[C@@H]2C)cc1 | 3390 nM | 36 nM | 6020 nM
C=CCN1CC[C@@H](N(c2ccccc2)c2ccc(C(=O)N(CC)CC)cc2)[C@@H](C)C1 | > 4850 nM |  | 
C/C=C/CN1CC[C@@H](N(c2ccccc2)c2ccc(C(=O)N(CC)CC)cc2)[C@@H](C)C1 | 938 nM and 3590 nM | 2.72 nM and 7 nM | 1640 nM and > 7460 nM
C=C(C)CN1CC[C@@H](N(c2ccc(C(=O)N(CC)CC)cc2)c2cccc(OC)c2)[C@@H](C)C1 | 5680 nM | 72 nM | > 7460 nM
CCN(CC)C(=O)c1ccc(N(c2cccc(OC)c2)[C@@H]2CCN(C)C[C@H]2C)cc1 | 3320 nM | 178 nM | 6300 nM
CCN(CC)C(=O)c1ccc(N(c2ccccc2)[C@@H]2CCN(CC3CC3)C[C@@H]2C)cc1 | 160 nM | 20 nM | 2380 nM
CCN(CC)C(=O)c1ccc(N(c2ccccc2)[C@@H]2CCN(CC=C(C)C)C[C@@H]2C)cc1 | 3780 nM | 15 nM | > 7460 nM
C=C(C)CN1CC[C@@H](N(c2ccccc2)c2ccc(C(=O)N(CC)CC)cc2)[C@@H](C)C1 | 1260 nM | 36 nM | > 7460 nM
C=CCN1CC[C@@H](N(c2ccc(C(=O)N(CC)CC)cc2)c2cccc(O)c2)[C@@H](C)C1 | 126 nM | 1.85 nM | 76.7 nM
C/C=C/CN1CC[C@@H](N(c2ccc(C(=O)N(CC)CC)cc2)c2cccc(OC)c2)[C@@H](C)C1 | 3250 nM | 18 nM | > 7460 nM
CCN(CC)C(=O)c1ccc(N(c2ccccc2)[C@@H]2CCN(CC3CC3)C[C@H]2C)cc1 | 5340 nM | 193 nM | > 6060 nM
CCN(CC)C(=O)c1ccc(N(c2ccccc2)[C@@H]2CCN(C)C[C@H]2C)cc1 | 1510 nM | 257 nM | > 6060 nM
CCN(CC)C(=O)c1ccc(N(c2cccc(OC)c2)[C@@H]2CCN(CC3CC3)C[C@H]2C)cc1 | > 6540 nM | 230 nM | > 7460 nM
CCN(CC)C(=O)c1ccc(N(c2cccc(OC)c2)[C@@H]2CCN(CC3CC3)C[C@@H]2C)cc1 | > 6540 nM | 36 nM | > 7460 nM
CCN(CC)C(=O)c1ccc(N(c2ccccc2)[C@@H]2CCN(C)C[C@@H]2C)cc1 | 388 nM | 45.6 nM | > 6060 nM
CCN(CC)C(=O)c1ccc(N(c2cccc(OC)c2)[C@@H]2CCN(C)C[C@@H]2C)cc1 | > 5920 nM | 141 nM | > 6060 nM
C=CCN1CC[C@@H](N(c2ccc(C(=O)N(CC)CC)cc2)c2cccc(OC)c2)[C@H](C)C1 | 4870 nM | 379 nM | > 7460 nM
C=CCN1C[C@H](C)[C@H](N(c2ccccc2)c2ccc(C(=O)N(CC)CC)cc2)C[C@H]1C | 171 nM | 18.8 nM | 1160 nM
CCN(CC)C(=O)c1ccc(N(c2cccc(OC)c2)[C@@H]2CCN(C/C=C/c3ccccc3)C[C@@H]2C)cc1 | > 6540 nM | 93 nM | > 7460 nM
C=CCN1CC[C@@H](N(c2ccc(C(=O)N(CC)CC)cc2)c2cccc(OC)c2)[C@@H](C)C1 | 5330 nM | 22 nM | > 7460 nM
C=CCN1C[C@H](C)[C@H](N(c2ccccc2)c2ccc(C(=O)N(CC)CC)cc2)C[C@@H]1C | 3890 nM | 53 nM | 2900 nM
CCN(CC)C(=O)c1ccc(N(c2ccccc2)[C@@H]2CCN(C/C=C/c3ccccc3)C[C@@H]2C)cc1 | 6420 nM | 68 nM | 13500 nM
C=CCN1C[C@H](C)[C@@H](N(c2ccccc2)c2ccc(C(=O)N(CC)CC)cc2)C[C@H]1C | 9900 nM | 93 nM | 6320 nM
